# Where “and” joins values, the source holds several entries; their conditions need not be identical. Equal values may be shown once. This is a selection; strong and weak results do not stand in their true shares. Inconclusive results are not listed. Calls of active or inactive are those of the source. Calls come from the whole dose curve; as a rule, active = well fitted inhibition curve with a large enough effect; inconclusive = small, poorly fitted or top-dose-only effect; inactive = no such curve, though single readings can be large or run the other way.
# Assay: Primary qHTS assay for inhibitors of alpha-synuclein gene (SNCA) expression; note: nearly all actives have a fitted effect of over 45% in size
# Conditions: HEK-293 SNCA-luciferase knock-in, luminescence, 24 h; at 57.2 µM (top of the series) unless noted
# From the text: Assay Submitter (PI): Daniel R. Scoles Ph.D.
# Department of Neurology, University of Utah, Salt Lake City, Utah
# Accumulation of alpha-synuclein is a main underlying pathological feature of Parkinson's disease (PD) and alpha-synucleinopathies, for which lowering expression of the alpha-synuclein gene (SNCA) is a potential therapeutic avenue. Using a cell-based luciferase reporter of SNCA expression we performed a quantitative high throughput screen (qHTS) of 155,885 compounds in dose response. The screening assay was generated using genome editing to insert the luciferase gene downstream and in frame of the SNCA gene in HEK-293 cells (1). A viability counterscreen using GF-AFC was used to eliminate cytotoxic and false positive compounds. After in silico analysis (clustering, removal of frequent hitter nuisance chemotypes), inhibitor compounds from the primary screen were selected for follow up and re-tested at 11-doses in the SNCA-luc cells (luciferase and GF-AFC confirmation), and in CMV-luc expressing cell line to flag general transcriptional repressors.
# Described herein are the results of the primary screen for SNCA inhibitors; decrease in luciferase signal (inhibition of the SNCA gene expression) is the desired output for this assay.
# 1. Dansithong, W., Paul, S., Scoles, D. R., Pulst, S. M., and Huynh, D. P. (2015) Generation of SNCA Cell Models Using Zinc Finger Nuclease (ZFN) Technology for Efficient High-Throughput Drug Screening. PLoS ONE 10, e0136930.
# SEQUENCE No. (e.g., 1, 2, 3, etc.); […] (e.g., Cells, Incubation, Reagent, etc.); VALUE; DESCRIPTION
# 1; Cells; 4 uL; Dispense 1500 HEK-293-SNCA-luc cells/well into Greiner 1536-well white / solid bottom tissue culture treated plate. The plate was covered with metal lids with gas-exchange holes.
# 2; Incubate; 24 hours; Incubate at 37C, 5% CO2, 95% RH.
# 3; Compounds; 23 nL; Compounds and controls were transferred via a Kalypsys Pin Tool (Wako USA) equipped with a 1536-slotted pin array. The plate was covered with metal lids with gas-exchange holes.
# 4; Incubate; 24 hours; Incubate at 37C, 5% CO2, 95% RH.
# 5; Dispense; 1 uL; Dispense Gly-Phe-7-amino-4-trifluoromethylcoumarin (GF-AFC, prepared at 125 uM in PBS) was added. The plate was covered with metal lids with gas-exchange holes.
# 6; Incubate; 30 min; Incubate at 37C, 5% CO2.
# 7; Detector; Fluorescence; Measure fluorescence with ViewLux microplate reader (PerkinElmer) equipped with 405/10 excitation and 540/25 emission filters.
# 8; Dispense; 3 uL; Dispense ONE-Glo ([…]) lucifase detection reagent was added to each well. Plates were covered with metal lids with gas-exchange holes.
# 9; Incubate; 15 min; Incubate at room temperature.
# 10; Detector; Luminescence; Measure luminescence with ViewLux microplate reader (PerkinElmer) equipped with clear filters.
# NOTES (numbers refer to sequence above)
# 1; HEK-293-SNCA-luc were cultured and suspended in phenol-red free DMEM (4.5 g/L glucose, 25 mM HEPES, cat #21063 (Thermo)).
# 3; Compounds were added to the assay plate in an 11-point intra plate dose response, 1:3 titration in DMSO with a final concentration range of […]. Vehicle-only plates, with DMSO being pin-transferred to every well, were inserted at the beginning of screening runs to confirm expected assay performance. Activity was normalized to wells containing medium only (-100% activity, full inhibition) and SNCA-luc cells treated with DMSO vehicle control (0% activity), contained on the same plate as test samples.
# 10; Signals were analyzed, and dose-response curves were fit using the Hill equation. Compounds in curve classes -1.1, -1.2, -2.1, -2.2 in the SNCA-luc assay were considered active. Compounds were eliminated from further consideration if also active (curve class -1.1, -1.2, -1.3, -1.4, -2.1, -2.2, -2.3, -2.4) in the GF-AFC cytotoxicity assay.
row,Structure (SMILES),"activity change, negative = inhibition"
1,CN(C(=O)Cc1ccc(Cl)c(Cl)c1)[C@H]1CCCC[C@@H]1N1CCCC1,inactive: -0.733% and inactive: 5.11%
2,CCNC(C)Cc1ccc2c(c1)OCO2 (configuration not stated),inactive: -18.5%
3,CN(C(=O)Cc1ccccc1)[C@H]1CC[C@@]2(CCCO2)C[C@@H]1N1CCCC1,inactive: -30.2% [at 25.6 µM]
4,Cc1cc([N+](=O)[O-])cc([N+](=O)[O-])c1O,inactive: -22.2%
5,CNCc1cc2ccccc2o1,inactive: 8.56% [at 87.6 µM]
6,CCn1c(=O)n([C@@H]2CCN(CC3CCCCCCC3)C[C@@H]2CO)c2ccccc21,inactive: -12.2%
7,NC(=O)Nc1ccc([As](=O)(O)O)cc1,inactive: -4.77% [at 25.6 µM]
8,CN(C(=O)Cc1ccc(Cl)c(Cl)c1)[C@H]1CC[C@@]2(CCCO2)C[C@@H]1N1CCCC1,inactive: 17.8% [at 25.6 µM]
9,CN(C(=O)Cc1ccccc1)[C@@H]1CC[C@]2(CCCO2)C[C@H]1N1CCCC1,inactive: -4%
10,CN(C(=O)Cc1ccc(Cl)c(Cl)c1)[C@@H]1CC[C@]2(CCCO2)C[C@H]1N1CCCC1,inactive: -2.04%
11,CN(CCCl)Cc1cc(Cl)c(NC2=NCCN2)c(Cl)c1,inactive: 5.93%
12,CNCc1cccc(C)n1,inactive: 15.1% [at 87.6 µM]

# From PubChem BioAssay AID1671194 (National Center for Advancing Translational Sciences (NCATS), 2021)
